Earlier results, collected in US12139729B2, “Neurodegenerative disorders” (priority 2013, dated 2024).

Settings: cited from earlier work

COc1ccc2c3c1O[C@H]1C[C@@H](O)C=C[C@@]31CCN(C)C2 [Galanthamine]
CNS permeability (Table 3 feature): Low permeability CNS
